Here are results for one compound from US20190307754A1, “PDE9 INHIBITORS FOR TREATMENT OF PERIPHERAL DISEASES” (IMARA, INC., priority 2016, published 2019).

Each structure is given as a SMILES string.

The conditions of this data set: male CD mice, 10 mg/kg subcutaneous.

As for `C[C@@H]1CN(Cc2ncccn2)C[C@H]1c1nc2c(cnn2C2CCOCC2)c(=O)[nH]1` (single isomer, unassigned) [AF27873, reference compound], for the setting “30 min”, the “Plasma concentration after 30 minutes” value is listed as 1230 ng/mL. In addition, the “Plasma concentration after 120 minutes” value (120 min) amounted to 529 ng/mL.
